This is an account of results in patent US8598314B2 (priority 2007, dated 2013).

Amino acid sequences for entries named in this document (tags omitted).
UniProt P27487, whole entry, species assumed: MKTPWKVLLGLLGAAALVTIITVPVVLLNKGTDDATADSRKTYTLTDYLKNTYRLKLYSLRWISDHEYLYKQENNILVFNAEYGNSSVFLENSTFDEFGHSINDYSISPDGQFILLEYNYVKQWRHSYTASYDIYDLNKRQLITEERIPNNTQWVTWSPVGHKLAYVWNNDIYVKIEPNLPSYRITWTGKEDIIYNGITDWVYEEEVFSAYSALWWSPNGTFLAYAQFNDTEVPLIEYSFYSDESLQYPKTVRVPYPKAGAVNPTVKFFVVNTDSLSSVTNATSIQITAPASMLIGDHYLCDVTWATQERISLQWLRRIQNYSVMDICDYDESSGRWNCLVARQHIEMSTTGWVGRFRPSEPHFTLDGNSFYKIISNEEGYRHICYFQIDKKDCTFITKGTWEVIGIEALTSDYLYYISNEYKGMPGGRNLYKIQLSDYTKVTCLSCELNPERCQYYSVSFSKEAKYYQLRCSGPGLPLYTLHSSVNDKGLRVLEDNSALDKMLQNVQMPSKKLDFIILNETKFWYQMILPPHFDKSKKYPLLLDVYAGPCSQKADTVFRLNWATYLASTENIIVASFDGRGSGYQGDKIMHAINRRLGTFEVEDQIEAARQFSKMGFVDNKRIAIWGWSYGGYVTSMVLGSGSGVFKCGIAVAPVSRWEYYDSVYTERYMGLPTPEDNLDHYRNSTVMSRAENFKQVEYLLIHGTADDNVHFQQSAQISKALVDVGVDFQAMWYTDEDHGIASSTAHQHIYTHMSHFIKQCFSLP

Like-named read-outs stand apart in the source and are kept apart here.

For experiment [1], the target named is T1, Recombinant DPP-IV (Homo sapiens, UniProt P27487). Briefly: DPP-IV inhibition assay, chromogenic substrate H-Gly-Pro-pNA. The class given is biochemical. Set-up: purchased Chemicon International, Inc. The following applies: positive control.
Experiment [2] addresses T1, Recombinant DPP-IV. Set-up: purchased Chemicon International, Inc. The settings on record: read-out: DPP-IV IC50, published value; Leiting et al. (2003); cited from earlier work.

A word on the IC50: it is the concentration that inhibits the measured activity by half. For `CC[C@H](C)[C@H](N)C(=O)N1CCC[C@H]1C(=O)N[C@H](C(=O)O)[C@@H](C)CC` [Diprotin A, Ile-Pro-Ile], the figures for the IC50 at Recombinant DPP-IV [1] and at Recombinant DPP-IV [2] were 5.1 µM and 3.5 µM, respectively.
